Legend:
[1] = Liquid; for vapor or sublimation pressure: Ebulliometric method (Recirculating still)
[2] = refractive index (Na D-line) (dimensionless); conditions: 298.15 K; 101.33 kPa; Liquid; Standard Abbe refractometry

CCCCOCCCC [dibutyl ether]
Conditions	mass density [kg/m3]
[1], 298.15 K, 101.33 kPa	764.04

[1]
Conditions	vapor or sublimation pressure [kPa]
346.03 K	10.04
350.43 K	12.03
354.18 K	14.02
359.28 K	17.1
363.41 K	20.02
363.51 K	20
367.17 K	23.04
370.72 K	26.18
373.59 K	28.95
376.37 K	31.96
379.91 K	35.96
383.09 K	39.94
386.03 K	43.95
388.78 K	47.95
391.29 K	51.85
393.59 K	55.85
395.84 K	59.9
398.48 K	64.9
400.94 K	69.92
403.18 K	74.81
405.4 K	79.93
407.43 K	84.78
409.2 K	89.87
411.12 K	94.88
413.11 K	100.12
413.67 K	101.3

Conditions	refractive index
[2]	1.397
